Patent publication US9382276B2, “Water-soluble O-carbonyl phosphoramidate prodrugs for therapeutic administration” (MicuRx Pharmaceuticals, Inc., priority 2014, dated 2016)

Legend:
[1] = aqueous stability testing, HPLC UV detection at different time points; details: for degradation and precipitation in aqueous solution: pH range of about 4-5 over at least 4-6 h
[2] = rat pharmacokinetic (PK) model, conversion of prodrug into MRX-I in blood; details: after intravenous administration of Example 1
[3] = aqueous solubility testing, HPLC quantitation with UV detection at 326 nm
[4] = D5W solution at pH 5 over 24 h at r.t., sodium salt form

| Structure (SMILES) | degradation in solution [1, 4] | precipitation from solution [1, 4] | degradation and precipitation in aqueous solution [1] | intermittent formation of Intermediate 3 in blood (LC-MS) [2] | solubility ([3]; D5W at pH 5, sodium salt, no additives or excipients) | aqueous solubility [3] |
| --- | --- | --- | --- | --- | --- | --- |
| CC(=O)OP(=O)(O)N(C[C@H]1CN(c2cc(F)c(N3C=CC(=O)CC3)c(F)c2F)C(=O)O1)c1ccon1 | only minimal degradation | without apparent precipitation | no significant degradation and precipitation | detected | about 400 mg/mL |  |
| CCOC(=O)CCC(=O)OP(=O)(O)N(C[C@H]1CN(c2cc(F)c(N3C=CC(=O)CC3)c(F)c2F)C(=O)O1)c1ccon1 |  |  | no significant degradation and precipitation |  |  | at least 20 mg/mL |
